US20260240805A1, “ENTACTOGEN-ASSISTED THERAPY FOR ALCOHOL USE DISORDER AND ADDICTION-RELATED CONDITIONS AND COMORBIDITIES” (Solvonis Therapeutics Ireland Holdings Limited, priority 2021, published 2026)

Experiments:
patients with AUD [1] = assay: Drinking behavior (TLFB, units of alcohol per week), open-label MDMA-assisted therapy study in AUD post-detox (Example 8); assay type: in vivo, human; settings: 3 months post-detox; 130.6 units per week in the month before detox; 14 participants; two sessions of 125 mg + 62.5 mg MDMA
patients with AUD [2] = assay: Physiological measures, SUDS and Drug Effects during MDMA sessions (Example 8); assay type: in vivo, human; settings: two hours after initial dose of 125 mg MDMA; regular antihypertensive not taken
Description: Dosing with MDMA occurred twice during the eight-week course on weeks 3 and 6.
Physiological and tolerability effects during MDMA sessions: In total, 26 drug-assisted psychotherapy sessions with MDMA were administered during the trial. Temperature, blood pressure and heart rate were measured at t=0, before taking MDMA, then half-hourly up to t=2 hours, then hourly thereafter for a minimum of 6-hours from the time of dosing (see FIG. 7).
Subjective Units of Distress (SUDS) and Participant report of Drug Effects were also measured, hourly, throughout the MDMA sessions (see FIG. 7). […] Participants gave their own subjective score (0-10) of whether they felt Drug Effects, and the therapists also recorded their own objective score of how “altered” the participant appeared. There was no significant difference between Observers' and Participants' Drug Effects scores. Drug Effects rose expectedly over the first two hours, with a notable further increase after the booster dose was given at t=2 hours, and a subsequent plateau then decline over the following six hours.

SMILES: CNC(C)Cc1ccc2c(c1)OCO2 (centres unmarked) [MDMA, 1-(1,3-benzodioxol-5-yl)-N-methylpropan-2-amine]
- units of alcohol per week (patients with AUD [1]): 16.9 units of alcohol per week
- blood pressure (BP), transient abnormal rise in one participant (patients with AUD [2]): 183/118
